The target of the assay is T1, Caspase-3 (Homo sapiens) (UniProt P42574).
T1 sequence (whole entry): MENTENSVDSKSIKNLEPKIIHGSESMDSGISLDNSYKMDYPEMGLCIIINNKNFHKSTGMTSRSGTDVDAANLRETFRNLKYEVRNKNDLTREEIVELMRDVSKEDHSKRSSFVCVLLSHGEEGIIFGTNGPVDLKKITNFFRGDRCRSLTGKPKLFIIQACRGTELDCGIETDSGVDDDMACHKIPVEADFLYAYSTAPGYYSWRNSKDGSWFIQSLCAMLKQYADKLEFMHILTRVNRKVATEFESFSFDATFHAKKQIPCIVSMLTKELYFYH
Briefly: Increase in caspase 3 activation in human HeLa cells using Ac-DEVD-pNA at 12 uM after 4 hrs by Bradford assay relative to control. It counts as cell-based.

This passage reports fold change (FC) results from ChEMBL document CHEMBL2046268, “Withaferin A-related steroids from Withania aristata exhibit potent antiproliferative activity by inducing apoptosis in human tumor cells” (Eur J Med Chem, 2012).

Structures are written as SMILES.

In the case of `CC1=C(CO)C(=O)O[C@@H]([C@@H](C)[C@H]2CC[C@H]3[C@@H]4C[C@H]5O[C@]56[C@@H](O)C=CC(=O)[C@]6(C)[C@H]4CC[C@]23C)C1` [WITHAFERIN A], the fold change (FC) was determined as 1.
